Test: in vivo
Conditions: rat, acute toxicity LD50, rats

Question: What does the source list for `COC1=C(OC)C(=O)C(CCCCCCCCCCO)=C(C)C1=O` [idebenone, 6-(10-hydroxydecyl)-2,3-dimethoxy-5-methyl-1,4-benzoquinone]?
Answer: LD50 (females): ~10000 mg/kg; LD50 (males): ≥ 10000 mg/kg

Source: patent publication US6271266A, “Use of idebenone and analogues against β amyloid induced cytotoxicity” (Takeda Chemical Industries, Ltd., priority 1996, dated 2001)
